One data set addresses T1, mouse MC1R (mMC1R) (Mus musculus, UniProt Q01727).
T1 construct: expressed in transfected cells; host or cells: HEK293 (Jump-In TI Gateway targeted integration, SV40 promoter)
The data set can be described thus: Cyclic AMP assay in HEK293 cells stably expressing mMC1R. The following applies: mMC1R on HEK293; geometric mean of three experiments; read-out: EC50 agonistic activity (cAMP). The format is cell-based.

By UniProt entry, the sequences of proteins in these tests, tags left out. Where a name states a change or a piece, a line headed by the entry shows the natural chain unless it says otherwise.
UniProt Q01727: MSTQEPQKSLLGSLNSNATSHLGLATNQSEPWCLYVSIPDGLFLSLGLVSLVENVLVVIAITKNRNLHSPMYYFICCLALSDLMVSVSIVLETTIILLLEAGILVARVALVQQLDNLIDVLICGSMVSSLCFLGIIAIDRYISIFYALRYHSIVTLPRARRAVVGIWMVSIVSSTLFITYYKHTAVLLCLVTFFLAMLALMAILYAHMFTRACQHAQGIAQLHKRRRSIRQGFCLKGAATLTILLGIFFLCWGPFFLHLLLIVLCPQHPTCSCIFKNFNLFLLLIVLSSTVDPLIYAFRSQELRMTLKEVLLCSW

Data set [1] concerns 5 human melanoma cell lines. The following applies: 5 human melanoma cell lines in vitro; data not shown.
Data set [2] has as its system B16F1 mouse melanoma cell line. The data set can be described thus: Melanin production in B16F1 cell line. The format is cell-based. The settings on record: B16F1 cells, 3 days. How it is done: Dulbecco's modified Eagle medium without phenol red (Life Technologies), containing 10% foetal bovine serum (Gibco) and 100 U/ml of penicillin‐streptomycin (Gibco), was used as the assay medium. Cells (1.5 × 10^4) were seeded into a 96‐well culture plate. Serially diluted test substances were added to the plate and incubated at 37°C in a humidified 5% CO2 incubator for 3 days. The melanin concentration in the supernatant was determined from the optical density (405 nm) measured by VersaMax^TM microplate reader (Molecular Devises) using a standard curve of eumelanin (Sigma‐Aldrich, M8631).

Some results are limits rather than exact numbers.

The term EC50 denotes the concentration that produces a half-maximal response. Regarding `COC[C@H]1CN(C(=O)[C@]2(F)CN(C3CCCC3)C[C@H]2c2ccc(OC)cc2)C[C@@H]1c1ccc(C(F)(F)F)cc1N1CCC(C(=O)O)CC1` [MT‐7117, dersimelagon], the EC50 on mouse MC1R (mMC1R) turned out to be 1.14 nM. Moreover, the “Effect on cell proliferation” value in data set [1] is “no effect”. Moreover, in data set [2], the “Concentrations that significantly increased eumelanin production” value is at least 3 pmol/L.
